Results reported in patent publication US20200031820A1, “3-CARBOXYLIC ACID PYRROLES AS NRF2 REGULATORS” (GLSXOSMITHKLINE INTELLECTUAL PROPERTY DEVELOPMENT LIMITED, priority 2016, published 2020).

Tested on: NQO1 specific enzyme activity in BEAS-2B cells (marker for NRF2 activation)
Experiment: Beas2B NQO1 MTT Assay
Conditions: NQO1 specific activity induction, 48 hours with compound
Source text: NAD(P)H:quinone oxidoreductase 1 (NQO1), also called DT diaphorase, is a homodimeric FAD-containing enzyme that catalyses obligatory NAD(P)H-dependent two-electron reductions of quinones and protects cells against the toxic and neoplastic effects of free radicals and reactive oxygen species arising from one-electron reductions. The transcription of NQO1 is finely regulated by NRF2, and thus NQO1 activity is a good marker for NRF2 activation. On day one, frozen BEAS-2B cells (ATCC) were thawed in a water bath, counted, and re-suspended at a concentration of 250,000 cells/mL. Fifty microliters of cells were plated in 384 well black clear-bottomed plates. Plates were incubated at 37° C., 5% CO2 overnight. On day two, plates were centrifuged and 50 nL of compound or controls were added to the cells. Plates were then incubated at 37° C., 5% CO2 for 48 hours. […] Fifty microliters of MTT cocktail was added to each well, plate was centrifuged, and analysed on an Envision plate reader (Perkin Elmer) using Absorbance 570 nm label for 30 minutes. Product formation was measured kinetically and the pEC50 of NQO1 specific activity induction was calculated by plotting the change in absorbance (Delta OD/min) versus the log of compound concentration followed by 3-parameter fitting. […]

## CC[C@H]1Cc2ccc(C(F)(F)F)cc2S(=O)(=O)N(Cc2cccc(-n3ccc(C(=O)O)c3[C@@H]3C[C@H]3c3cn(C)nn3)c2)C1
  EC50: < 1 nM
